These are literature values, as cited in EP0303681B1 (priority 1987, dated 1988).

The conditions of data set [1]: after intravenous administration; cited from earlier work.
The test system of a further data set is metastatic melanoma. The conditions noted are these: cyclophosphamide alone for treatment of melanoma, limited number of patients (Mastrangelo et al.); cited from earlier work.

As for `O=P1(N(CCCl)CCCl)NCCCO1` (stereo not drawn), in data set [1], the “drug and its metabolites detectable in plasma” value is on record as “up to 72 hours”; the serum half life entry was “about 4 hours”. For the same compound, the response result with metastatic melanoma is on record as “less than 13%”.
